## Yeast mating assay 1: variants of the scFv Ab-14

From the AlphaSeq antibody data of Engelhart et al. 2022 (doi:10.1038/s41597-022-01779-4), copy in the FLAb collection.

Binding partner: SARS-CoV-2 spike HR2 peptide, sequence PDVDLGDISGINAS.

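The starting antibody came from a phage panning campaign against this peptide. AAYL50 was designed without a model: most single CDR substitutions and a random sample of double and triple ones. In AlphaSeq, yeast of one mating type display the scFv and yeast of the other type display the target. Mating (16 h, 30 °C) was followed by selection of diploids and sequencing of their barcodes. A regression on co-assayed BCL2-family reference pairs converts the normalised counts of each replicate to an apparent Kd. Each pool was mated in three replicate cultures.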

Parent: Ab-14, a human scFv built as VH, a 15-residue (Gly4Ser)3 linker, VL. Only the CDRs of the light chain vary.
VH: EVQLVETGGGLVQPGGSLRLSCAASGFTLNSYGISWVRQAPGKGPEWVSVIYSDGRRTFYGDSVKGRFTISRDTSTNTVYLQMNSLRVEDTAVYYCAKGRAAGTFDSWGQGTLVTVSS
VL: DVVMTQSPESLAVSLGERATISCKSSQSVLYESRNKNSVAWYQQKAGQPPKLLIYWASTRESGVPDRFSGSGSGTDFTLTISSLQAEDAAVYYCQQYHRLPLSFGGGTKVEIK

Substitutions are numbered in sequence along the VL above, starting at 1 (not Kabat).
Kd is apparent (estimated from mating counts) and averaged on the log scale over replicates with a signal. Smaller is tighter.
An entry "not detected" has no value in the source: the pair was not observed among the diploids in any replicate. This suggests poor binding but is not conclusive.
In this assay the parent's reference entry averaged 4.4 nM; its copy inside this library read 48 nM.
Background: pairings of library AAYL50 with three empty control strains gave a value in 18% of cases (median 15 µM, 5th percentile 970 nM). Values in that range, when seen in few replicates, are hard to tell from nonspecific mating. Also given: how often the same scFv was detected with the empty control strains.

| # | changes | Kd (apparent) | seen in | empty controls |
|---|---|---|---|---|
| 1 | W56A+R60T+R99I | 9.8 nM | 3 of 3 | 3 of 9 |
| 2 | K24P+E32D+Y97Q | not detected | 0 of 3 | 0 of 9 |
| 3 | S25A+N35G | 6.5 nM | 3 of 3 | 3 of 9 |
| 4 | N37F+Q96R+Y97K | 34 nM | 3 of 3 | 4 of 9 |
| 5 | V29K+K36F | 14 nM | 3 of 3 | 1 of 9 |
| 6 | K24V+T59F+R60Y | not detected | 0 of 3 | 0 of 9 |
| 7 | K36G+S58Y+S62L | 35 nM | 3 of 3 | 1 of 9 |
| 8 | Q96E+H98S+S103E | not detected | 0 of 3 | 0 of 9 |
| 9 | S28H+K36D+R60P | 1.7 µM | 2 of 3 | 1 of 9 |
| 10 | S28M+S58W+Q96T | not detected | 0 of 3 | 0 of 9 |
| 11 | S28H+Y97E+P101M | 23 nM | 3 of 3 | 3 of 9 |
| 12 | E32L+S62P+P101S | not detected | 0 of 3 | 0 of 9 |
| 13 | N37A+L100Q+L102N | 3.5 µM | 1 of 3 | 0 of 9 |
| 14 | N37H+A57Y+H98R | not detected | 0 of 3 | 0 of 9 |
| 15 | K24I+S26C+T59L | 2.4 µM | 1 of 3 | 3 of 9 |
| 16 | S28A+R34W+S38W | not detected | 0 of 3 | 0 of 9 |
| 17 | A57R+R99S+P101W | 1.2 µM | 3 of 3 | 0 of 9 |
| 18 | N37M+Y97L+S103N | 26 nM | 3 of 3 | 1 of 9 |
| 19 | L30G+S38R+A57F | not detected | 0 of 3 | 0 of 9 |
| 20 | Q27H+V29Q+R60T | not detected | 0 of 3 | 3 of 9 |
| 21 | L30A+H98R | 170 nM | 3 of 3 | 1 of 9 |
| 22 | Q96D+L102C | not detected | 0 of 3 | 0 of 9 |
| 23 | Y31F+Q95V+S103N | 4.7 µM | 1 of 3 | 1 of 9 |
| 24 | H98P+R99T | 770 µM | 1 of 3 | 1 of 9 |
| 25 | E32R+V39L+T59S | 2.2 µM | 2 of 3 | 0 of 9 |
| 26 | L30S+N35K+R60L | 100 nM | 3 of 3 | 0 of 9 |
| 27 | R60L+S62Q | 5.3 nM | 3 of 3 | 2 of 9 |
| 28 | T59W+Y97M+P101T | 240 nM | 1 of 3 | 1 of 9 |
| 29 | K24V+E32N+A40E | not detected | 0 of 3 | 0 of 9 |
| 30 | S28Q+E61F+P101E | 48 nM | 3 of 3 | 1 of 9 |
| 31 | S33A+E61G+Q96H | 110 nM | 3 of 3 | 4 of 9 |
| 32 | K24Y+A40S+H98Q | not detected | 0 of 3 | 2 of 9 |
| 33 | E32N+N35F+Q95V | not detected | 0 of 3 | 0 of 9 |
| 34 | S28W+R34F+L100H | not detected | 0 of 3 | 0 of 9 |
| 35 | Y31T+A40C+L102E | not detected | 0 of 3 | 5 of 9 |
| 36 | L30I+S58W | not detected | 0 of 3 | 0 of 9 |
| 37 | L30G+S58G+L100H | 42 µM | 1 of 3 | 3 of 9 |
| 38 | S28K+S33L+R60V | 2.7 µM | 2 of 3 | 0 of 9 |
| 39 | L30I+V39D+L100W | not detected | 0 of 3 | 0 of 9 |
| 40 | S28M+A40I+H98N | not detected | 0 of 3 | 0 of 9 |
| 41 | E32P+N37D+H98A | 19 nM | 3 of 3 | 2 of 9 |
| 42 | W56L+A57L+S103L | 100 µM | 1 of 3 | 5 of 9 |
| 43 | V29T+R99K+S103K | 8.7 nM | 3 of 3 | 2 of 9 |
| 44 | R34F+R99H+L100I | 38 nM | 3 of 3 | 0 of 9 |
| 45 | S26M+L30Q+Y97F | 740 nM | 3 of 3 | 3 of 9 |
| 46 | E32C+N37K+S62K | not detected | 0 of 3 | 2 of 9 |
| 47 | S25L+N35R+P101C | 2.8 nM | 3 of 3 | 0 of 9 |
| 48 | E32I+S58F | 74 µM | 3 of 3 | 9 of 9 |
| 49 | Q27M+S28Y+Q96R | 1.8 µM | 2 of 3 | 0 of 9 |
| 50 | V39L+S58P+P101N | not detected | 0 of 3 | 2 of 9 |
| 51 | S38A+V39Q+E61G | not detected | 0 of 3 | 0 of 9 |
| 52 | S26R+A57P+Q96H | 190 µM | 3 of 3 | 4 of 9 |
| 53 | S25P+S28L+S33Y | 2.1 µM | 1 of 3 | 1 of 9 |
| 54 | R34P+R99P+L102N | 120 nM | 3 of 3 | 5 of 9 |
| 55 | S25W+K36E+S58K | 20 nM | 3 of 3 | 1 of 9 |
| 56 | N37H+W56N+H98L | 2.1 nM | 3 of 3 | 1 of 9 |
| 57 | S26H+S28C+V39H | 1.7 µM | 1 of 3 | 3 of 9 |
| 58 | L30N+V39M+A40K | 20 µM | 1 of 3 | 6 of 9 |
| 59 | Q27G+S33Y+L102N | 8.8 µM | 1 of 3 | 3 of 9 |
| 60 | N35A+S62V+Y97P | not detected | 0 of 3 | 0 of 9 |

For reference, 4 entries of the list once more:

| changes | Kd (apparent) | seen in | empty controls |
|---|---|---|---|
| S28H+Y97E+P101M | 23 nM | 3 of 3 | 3 of 9 |
| Q96D+L102C | not detected | 0 of 3 | 0 of 9 |
| S33A+E61G+Q96H | 110 nM | 3 of 3 | 4 of 9 |
| Y31F+Q95V+S103N | 4.7 µM | 1 of 3 | 1 of 9 |